Source: PMC3760131 (Acta Crystallographica Section D: Biological Crystallography, 2013)

Amino acid sequences for entries named in this document (tags omitted). Residues count along the entry.
UniProt P98170, 241-356: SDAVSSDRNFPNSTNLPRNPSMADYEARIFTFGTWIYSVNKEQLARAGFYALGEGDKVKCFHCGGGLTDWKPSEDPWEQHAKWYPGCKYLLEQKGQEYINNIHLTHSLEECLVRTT
UniProt P98170, 124-240: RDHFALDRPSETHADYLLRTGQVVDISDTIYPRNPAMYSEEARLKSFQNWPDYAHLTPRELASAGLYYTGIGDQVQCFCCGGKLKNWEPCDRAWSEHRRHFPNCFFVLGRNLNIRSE

Experiments:
XIAP BIR3 = molecular target: T1, XIAP BIR3 (Homo sapiens, UniProt P98170); assay: BIR3 TR-FRET assay (displacement of AVPI-derived peptide); type: binding; conditions: FRET-based displacement of AVPI-derived peptide from 6xHis BIR3 (241-356); Ki from IC50 by Cheng-Prusoff; read-out: BIR3 K i
T1 construct: 6×histidine-tagged BIR2 (amino acids 124–240) or BIR3 (amino acids 241–356) domain of the XIAP protein
Procedure: (§1) Time-resolved fluorescence resonance energy transfer (TR-FRET) signals were measured 1 h later at room temperature. Compound potency was assessed at ten serially diluted concentrations. The percentage of inhibition at each concentration was determined to generate an IC50 value for each compound.

XIAP BIR2 = molecular target: T2, XIAP BIR2 (Homo sapiens, UniProt P98170); assay: BIR2 TR-FRET assay (displacement of AVPI-derived peptide); type: binding; conditions: FRET-based displacement of AVPI-derived peptide from 6xHis BIR2 (124-240); Ki from IC50 by Cheng-Prusoff; read-out: BIR2 K i
T2 construct: 6×histidine-tagged BIR2 (amino acids 124–240) or BIR3 (amino acids 241–356) domain of the XIAP protein
Procedure: as §1

| Structure (SMILES) | Ki (XIAP BIR3) [µM] | Ki (XIAP BIR2) [µM] |
| --- | --- | --- |
| CC[C@H](C)[C@H](NC(=O)[C@@H]1CCCN1C(=O)[C@H](CCCNC(=N)N)NC(=O)[C@H](C)N)C(=O)O [ARPI] | 0.12 | 10.2 |
| CC[C@H](C)[C@H](NC(=O)[C@@H]1CCCN1C(=O)[C@@H](NC(=O)[C@@H](N)CO)C(C)C)C(=O)O [SVPI] | 4.62 | 12 |
